Assay: Physical form of choline-based ionic liquids at room temperature
Assay type: physicochemical
Conditions: for appearance and physical form: room temperature, ratio as in label
Procedure: Several ionic liquids comprising choline as a cation and various anions were synthesized. […] For anions not miscible with the aqueous choline bicarbonate solution, a co-solvent, such as ethanol, was added until a homogenous mixture formed. The mixture was stirred at room temperature until CO2 evolution ceased. Solvent was removed by rotary evaporation at 60° C. for 20 minutes, and each product was dried in a vacuum oven for 48 hours at 60° C.

L-(+)-Tartaric Acid
Physical Form (Ratios Listed as Cation:Anion) (cation:anion 1:1, room temperature): Solid | Physical Form (Ratios Listed as Cation:Anion) (cation:anion 2:1, room temperature): Liquid | appearance and physical form (listed as choline-tartaric acid (1:1)): solid | appearance and physical form (listed as choline-tartaric acid (2:1)): clear liquids

Source: US20240130994A1, “IONIC LIQUID FORMULATIONS FOR TREATING DIABETES” (i2O Therapeutics, Inc., priority 2020, published 2024)
